## Antibody variant affinities, Ab-14 light chain, assay B

Reference: Li et al. 2023, doi:10.1038/s41467-023-39022-2. File: FLAb, binding data.

Target: peptide PDVDLGDISGINAS, taken from heptad repeat 2 (HR2) of SARS-CoV-2 spike.

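These sequences belong to a second round, designed from the earlier measurements on random variants of the parent. Group labels follow the data file (Ctrl: baseline library sampled from a position-specific scoring matrix, with some repeated check sequences; GPLM: also part of the Gaussian process libraries; HC: hill climbing; a sequence that several methods proposed may carry one label only). Affinity was read by AlphaSeq, a pooled yeast mating assay with surface-displayed partners. Pairs that bind mate more often; barcode pairs of the diploids are counted by sequencing. A regression on co-assayed BCL2-family reference pairs converts the normalised counts of each replicate to an apparent Kd. Each pool was mated in six replicate cultures.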

The variants keep the heavy chain, the linker and the frameworks of Ab-14 (scFv order VH, the linker GGGGSGGGGSGGGGS, VL).
VH: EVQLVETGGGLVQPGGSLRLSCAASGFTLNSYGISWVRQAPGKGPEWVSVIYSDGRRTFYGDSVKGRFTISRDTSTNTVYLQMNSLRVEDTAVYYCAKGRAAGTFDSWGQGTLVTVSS
VL: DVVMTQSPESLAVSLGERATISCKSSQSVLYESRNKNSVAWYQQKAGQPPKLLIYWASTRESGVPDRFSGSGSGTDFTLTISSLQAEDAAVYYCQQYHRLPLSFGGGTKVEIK

Changes read parent residue, position, new residue, counted from the first residue of the VL shown.
Affinities are written as log10 Kd with Kd in nM; a lower number is a better binder.
"n.d." means that the variant was in the library but no mating with the target was seen in that replicate; the authors take this as a sign of poor binding, and no number exists.
In the paper, a design with two or fewer of six values counts as a poor binder.
Of ten entries with the parent sequence, four were seen in most replicates (averages 0.34 to 2.37), three in one and three in none, so single entries are noisy.
A sequence that the file lists under several names has all its replicates listed entry by entry, parted by semicolons.
Three control strains display no target. For all light chain designs, 4% of the pairings with them gave a signal, with a median of 2.64 and one signal in twenty below 1.59, so weak values seen in few replicates may be background. Also given: how often the same scFv was detected with the empty control strains, with their mean in brackets.
The range of this assay differs from that of the first round, and the authors advise against merging the two.

changes,group,"replicates, log10 nM",control signals
L30D R34V Q95C,Ctrl,1.13 / 1.19 / 1.73 / n.d. / 0.81 / 1.00,0 of 18
S25C L30I N35G S38F W56E S58W,Ctrl,n.d. / 2.53 / n.d. / n.d. / n.d. / 2.54,1 of 18 (1.91)
S26Q Q27I K36H S38H,Ctrl,n.d. / 2.51 / n.d. / 1.88 / 2.40 / n.d.,0 of 18
S26Q S33P N35G K36C W56A,Ctrl,0.09 / 0.39 / 0.90 / 0.57 / 0.56 / 1.27,1 of 18 (4.11)
S38N R99D,Ctrl,1.75 / 1.44 / 1.52 / n.d. / 2.22 / n.d.,0 of 18
N35L S38V W56Q S58A T59Q,Ctrl,n.d. / n.d. / n.d. / n.d. / n.d. / n.d.,0 of 18
K24L S26P L100I,Ctrl,n.d. / n.d. / n.d. / n.d. / n.d. / n.d.,0 of 18
L30F Q95L S103K,Ctrl,n.d. / n.d. / n.d. / n.d. / n.d. / n.d.,0 of 18
Y31G S33L,Ctrl,1.26 / 1.50 / 1.23 / 1.07 / 1.81 / 1.16,1 of 18 (2.04)
L30G K36E W56S,Ctrl,0.07 / 0.03 / -0.14 / -0.14 / 0.02 / 0.07,1 of 18 (2.58)
S28E S62D,Ctrl,n.d. / n.d. / n.d. / n.d. / n.d. / n.d.,2 of 18 (1.96)
S25R W56Q L100M,Ctrl,n.d. / n.d. / 0.63 / n.d. / n.d. / n.d.,0 of 18
S25M K36S Q95S H98A,Ctrl,2.61 / 1.82 / n.d. / n.d. / 2.82 / 3.09,1 of 18 (2.61)
E32Q K36N W56S,Ctrl,1.03 / 1.16 / 1.34 / 0.96 / 0.95 / 0.84,0 of 18
Y31E S33L,Ctrl,1.14 / 1.79 / n.d. / 1.49 / n.d. / n.d.,0 of 18
L30F W56S,Ctrl,0.80 / 1.13 / 0.96 / 0.70 / 0.97 / 0.68,0 of 18
S25M P101I,Ctrl,n.d. / n.d. / n.d. / n.d. / n.d. / n.d.,0 of 18
Y31T E32A N35Q W56H T59W,Ctrl,n.d. / n.d. / n.d. / n.d. / n.d. / 1.90,0 of 18
S28K S33E H98S,Ctrl,1.01 / 1.38 / 1.76 / 1.59 / 1.36 / 1.14,0 of 18
S33E R34P,Ctrl,n.d. / 1.50 / n.d. / 1.63 / 1.42 / n.d.,0 of 18
L30E L102P,Ctrl,n.d. / n.d. / n.d. / n.d. / n.d. / n.d.,1 of 18 (2.35)
Y31S W56Q,Ctrl,0.92 / 0.78 / 0.79 / 0.58 / 0.77 / 0.68,3 of 18 (3.05)
Q27Y S28H V29K Y31T A57R,Ctrl,n.d. / n.d. / n.d. / n.d. / n.d. / n.d.,0 of 18
S25V Y31L S33V,Ctrl,n.d. / n.d. / n.d. / n.d. / 1.72 / n.d.,0 of 18
K24S S25Y A57G E61N,Ctrl,0.41 / 0.09 / 1.36 / 0.87 / 1.03 / 1.53,0 of 18
S25I S38N W56Q Y97P,Ctrl,0.85 / 0.64 / 0.30 / 0.36 / 0.13 / 0.62,0 of 18
E32F R34W T59Q,Ctrl,n.d. / n.d. / n.d. / n.d. / n.d. / n.d.,0 of 18
S25F S26Y Q27W V29G N35D N37R A57D E61V,Ctrl,n.d. / n.d. / n.d. / n.d. / n.d. / n.d.,1 of 18 (2.64)
L30K,Ctrl,n.d. / n.d. / n.d. / n.d. / n.d. / n.d.,0 of 18
S25M V29D W56K,Ctrl,0.12 / 0.16 / 0.17 / 0.10 / 0.05 / 0.31,1 of 18 (1.92)
E32D N35K E61V,Ctrl,3.19 / 3.15 / n.d. / 1.66 / 2.96 / 2.33,1 of 18 (1.94)
S58F E61M,Ctrl,n.d. / n.d. / n.d. / n.d. / n.d. / n.d.,1 of 18 (2.06)
S25Q R34P E61V S62R Y97L L100M,Ctrl,n.d. / n.d. / n.d. / n.d. / n.d. / n.d.,0 of 18
W56N L102I,Ctrl,1.00 / 0.75 / 0.84 / 0.93 / 0.72 / 1.33,1 of 18 (2.25)
S25V V29Q L30I Y31S R34T W56E P101T L102W,Ctrl,n.d. / n.d. / n.d. / 2.23 / n.d. / n.d.,0 of 18
Q27P V29S R99W,Ctrl,n.d. / n.d. / n.d. / n.d. / n.d. / n.d.,0 of 18
S28L Y31G R34D,Ctrl,1.12 / 1.28 / 0.97 / 1.07 / 1.61 / 1.31,2 of 18 (2.57)
W56D,Ctrl+GPLM_HC,0.74 / 0.21 / 0.02 / 0.30 / 0.31 / 0.39; 0.27 / -0.02 / 0.06 / -0.26 / -0.13 / 0.03,2 of 36 (2.35)
Q27E Y31P E32P N35G,Ctrl,n.d. / n.d. / 0.98 / 0.51 / n.d. / 1.05,0 of 18
Y31N K36T Y97P,Ctrl,n.d. / n.d. / n.d. / n.d. / n.d. / n.d.,0 of 18
S25Y R34D,Ctrl,1.08 / 1.27 / 0.95 / 0.94 / 1.18 / 1.28,3 of 18 (2.77)
R34C S62L,Ctrl,n.d. / n.d. / n.d. / n.d. / 2.65 / n.d.,0 of 18
R34F W56E,Ctrl,0.56 / 0.57 / 0.22 / 0.46 / 1.14 / 1.16,0 of 18
K24Y S26M S33C W56N L100E,Ctrl,n.d. / n.d. / n.d. / n.d. / 3.32 / n.d.,0 of 18
Q27H L30K H98A P101H,Ctrl,n.d. / n.d. / n.d. / n.d. / n.d. / n.d.,0 of 18
S26T V39I W56S,Ctrl,0.55 / 0.69 / 0.73 / 0.66 / 0.47 / 0.58,1 of 18 (2.82)
Y31D W56H H98S P101A,Ctrl,0.75 / 0.94 / 0.25 / 0.18 / 0.29 / 0.54,1 of 18 (2.56)

The first 4 variants above that were never detected:

changes,group,"replicates, log10 nM",control signals
N35L S38V W56Q S58A T59Q,Ctrl,n.d. / n.d. / n.d. / n.d. / n.d. / n.d.,0 of 18
K24L S26P L100I,Ctrl,n.d. / n.d. / n.d. / n.d. / n.d. / n.d.,0 of 18
L30F Q95L S103K,Ctrl,n.d. / n.d. / n.d. / n.d. / n.d. / n.d.,0 of 18
S28E S62D,Ctrl,n.d. / n.d. / n.d. / n.d. / n.d. / n.d.,2 of 18 (1.96)